Source: US10398687B2, “Use of cyproheptadine to treat organophosphate exposure” (dated 2019)

System: organophosphate chemical warfare agents
Test: Survival with cyproheptadine added to lower doses of atropine

For CN1CCC(=C2c3ccccc3C=Cc3ccccc32)CC1, the “survival compared with the standard atropine dose” value was “greater survival”.
